Among the data in BindingDB's records for doi:10.1021/jm960455s (Bristol-Myers Squibb Pharmaceutical Research Institute, 1997) are EC50 values, retold here.

The nature of this assay: Effective concentration for stimulation of platelet aggregation.

In general, EC50 refers to the concentration that produces a half-maximal response. As to `CC(C)C[C@H](NC(=O)[C@H](CC(C)C)NC(=O)[C@H](Cc1ccccc1)NC(=O)CCN)C(=O)N[C@@H](CCCNC(=N)N)C(N)=O` [(S)-2-[(S)-2-(3-Amino-propionylamino)-3-phenyl-propionylamino]-4-methyl-pentanoic acid [(S)-1-((S)-1-carbamoyl-4-guanidino-butylcarbamoyl)-3-methyl-butyl]-amide], a half-maximal effect (EC50) was put at 11.7 µM. That is a double-digit micromolar value.
